Literature values as cited in patent US4382181A, “Detection of atoms using monochromatic X-rays” (priority 1981, dated 1983).

Tested on: plasma proteins such as T4 -binding globulin, T4 -binding prealbumin, and albumin
Conditions: usual value

For `N[C@@H](Cc1cc(I)c(Oc2cc(I)c(O)c(I)c2)c(I)c1)C(=O)O` [T4, L-thyroxine], the “fraction of T4 in serum in free form” value is listed as 0.04-0.05%.
